The target of one experiment is T1, Aurora A / TPX2 (1-43) (Homo sapiens, UniProt O14965).
T1 construct: human Aurora A kinase domain (residues 122-403 in the pET24-d vector); His-tag (cleaved yes); made in house; host or cells: E. coli BL21 (DE3) Rosetta (Aurora A); E. coli Bl21 (DE3) (TPX2)
T1 sequence (O14965 122-403): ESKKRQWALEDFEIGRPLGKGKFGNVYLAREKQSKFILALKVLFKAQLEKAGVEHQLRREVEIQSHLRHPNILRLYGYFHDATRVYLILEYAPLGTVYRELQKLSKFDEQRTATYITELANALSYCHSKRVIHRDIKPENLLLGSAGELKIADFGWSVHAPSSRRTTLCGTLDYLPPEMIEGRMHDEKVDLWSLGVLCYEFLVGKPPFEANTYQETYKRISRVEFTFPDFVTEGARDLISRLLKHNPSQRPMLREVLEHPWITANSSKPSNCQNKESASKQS
As to the kind of experiment: Microscale thermophoresis, Aurora A binding to labeled TPX2 1-43. The following applies: no inhibitor. As to the method:
The clone of human TPX2 N-terminal domain (residues 1-43), preceded by GST and a TEV cleavage site, was a generous gift from the Conti laboratory (MPI, Martinsried). The protein was expressed in E. coli Bl21 (DE3) cells using 0.1 mM IPTG at 20° C. for 12 hours. Cells were broken and the soluble fraction was isolated as explained above. TPX2 was purified using a GSTrap (GE Healthcare) equilibrated in 50 mM Tris, 150 mM NaCl, pH=7.5. GST-TPX2 was eluted using final buffer plus 10 mM reduced glutathione. The GST-tag was cleaved with TEV protease at 4° C. overnight. TPX2 (1-43) was isolated in a final step of size exclusion chromatography using a HiLoad 16/60 Superdex™ 75 column (GE Healthcare) equilibrated in final buffer. Protein concentration was determined by UV absorbance. TPX2 was flash frozen in liquid nitrogen and stored at −18° C.
TPX2 was labelled using the Monolith NT.115 protein labelling kit RED (NanoTemper Technologies). […] Thermophoresis was measured at room temperature with 5 s/30 s/5 s laser off/on/off times. […] Data of three independent measurements were analyzed (NT.Analysis software, version 1.5.41, NanoTemper Technologies) using the thermophoresis signal after 10 sec. Points measured above 4.7 μM Aurora A were rejected.
(MST reads how a fluorescent partner responds to local heating, with and without ligand.)

Another experiment addresses T2, Aurora A bound to TPX2 (Homo sapiens, UniProt O14965).
T2 construct: human Aurora A kinase domain (residues 122-403 in the pET24-d vector); His-tag (cleaved yes); made in house; host or cells: E. coli
T2 sequence (O14965 122-403): T1 sequence (O14965 122-403)
Kind of experiment: Aurora A kinase activity and inhibition in the presence of TPX2. The class given is biochemical. The following applies: TPX2 binding. As for the experimental part: Aurora A and AuroraB kinases were assayed using the homogeneous time-resolved fluorescence (HTRF) KinEASE STK2 kit from Cisbio (France). […] For both enzymes, the reactions were run for 30 min at room temperature and stopped by the addition of 10 μL of detection buffer containing EDTA, antiphospho-Ser/Thr antibody labelled with europium cryptate, and XL-665 conjugated streptavidin (62.5 nM final concentration). After incubation at room temperature for one hour, fluorescence was measured at 620 nm (europium cryptate) and 665 nm (XL-665) after excitation at 317 nm (lag time 60 μs, integration time 500 μs) using a Tecan Infinite M1000 PRO microplate reader (Greiner 384-well plates, white, non-binding, small volume). The ratio of fluorescence (665 nm/620 nm) was calculated for each well and the results were expressed as follows: specific signal=ratio (sample)−ratio (negative control), where ratio=665 nm/620 nm×10^4. Compounds were measured in threefold serial dilutions at 10 different concentrations, covering the concentration range from no to full inhibition. Each concentration was measured in duplicates, and two independent determinations were made for each IC50 value. IC50 curves were generated using a four-parameter logistic model (XLfit from IDBS).

As to “TPX2^1-43: human TPX2 N-terminal domain (residues 1-43), microtubule-associated activator protein of Aurora A”, binding with Aurora A / TPX2 (1-43) was put at a Kd of 795 ± 129 nM. Besides, in the experiment with Aurora A bound to TPX2, the “increase in the activity of Aurora A” value was 3 fold.

As usually defined, the Kd is the free concentration of one partner at which half of the binding sites on the other are occupied at equilibrium, for simple one-to-one binding.

(Values after patent US20190352297A1, “SELECTIVE AURORA A KINASE INHIBITORS” (UNIVERSITAT BERN, priority 2017, published 2019).)
